Chains of the proteins cited; added tags and fusions are not shown. Residues count along the entry.
UniProt P05556, 21-798 limits assumed: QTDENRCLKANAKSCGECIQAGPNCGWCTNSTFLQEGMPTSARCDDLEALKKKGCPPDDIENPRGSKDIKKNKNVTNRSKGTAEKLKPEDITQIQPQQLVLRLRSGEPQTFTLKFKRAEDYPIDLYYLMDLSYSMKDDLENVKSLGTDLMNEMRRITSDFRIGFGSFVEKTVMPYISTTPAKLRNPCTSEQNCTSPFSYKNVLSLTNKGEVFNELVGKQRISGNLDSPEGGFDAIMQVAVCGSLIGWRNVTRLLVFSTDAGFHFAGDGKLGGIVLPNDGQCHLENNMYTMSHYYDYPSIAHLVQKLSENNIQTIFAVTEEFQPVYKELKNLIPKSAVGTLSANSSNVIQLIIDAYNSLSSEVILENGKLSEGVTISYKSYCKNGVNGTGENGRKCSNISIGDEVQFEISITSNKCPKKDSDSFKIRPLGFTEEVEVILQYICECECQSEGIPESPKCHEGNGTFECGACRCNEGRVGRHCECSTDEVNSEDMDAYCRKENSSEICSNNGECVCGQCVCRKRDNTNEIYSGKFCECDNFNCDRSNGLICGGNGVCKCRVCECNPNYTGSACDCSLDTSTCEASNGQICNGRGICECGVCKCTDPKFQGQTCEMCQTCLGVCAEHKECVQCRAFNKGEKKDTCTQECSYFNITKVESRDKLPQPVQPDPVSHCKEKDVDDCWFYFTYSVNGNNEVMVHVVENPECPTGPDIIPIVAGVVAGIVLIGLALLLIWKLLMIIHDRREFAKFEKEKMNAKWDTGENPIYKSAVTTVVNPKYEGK
UniProt P13612, 34-1032 limits assumed: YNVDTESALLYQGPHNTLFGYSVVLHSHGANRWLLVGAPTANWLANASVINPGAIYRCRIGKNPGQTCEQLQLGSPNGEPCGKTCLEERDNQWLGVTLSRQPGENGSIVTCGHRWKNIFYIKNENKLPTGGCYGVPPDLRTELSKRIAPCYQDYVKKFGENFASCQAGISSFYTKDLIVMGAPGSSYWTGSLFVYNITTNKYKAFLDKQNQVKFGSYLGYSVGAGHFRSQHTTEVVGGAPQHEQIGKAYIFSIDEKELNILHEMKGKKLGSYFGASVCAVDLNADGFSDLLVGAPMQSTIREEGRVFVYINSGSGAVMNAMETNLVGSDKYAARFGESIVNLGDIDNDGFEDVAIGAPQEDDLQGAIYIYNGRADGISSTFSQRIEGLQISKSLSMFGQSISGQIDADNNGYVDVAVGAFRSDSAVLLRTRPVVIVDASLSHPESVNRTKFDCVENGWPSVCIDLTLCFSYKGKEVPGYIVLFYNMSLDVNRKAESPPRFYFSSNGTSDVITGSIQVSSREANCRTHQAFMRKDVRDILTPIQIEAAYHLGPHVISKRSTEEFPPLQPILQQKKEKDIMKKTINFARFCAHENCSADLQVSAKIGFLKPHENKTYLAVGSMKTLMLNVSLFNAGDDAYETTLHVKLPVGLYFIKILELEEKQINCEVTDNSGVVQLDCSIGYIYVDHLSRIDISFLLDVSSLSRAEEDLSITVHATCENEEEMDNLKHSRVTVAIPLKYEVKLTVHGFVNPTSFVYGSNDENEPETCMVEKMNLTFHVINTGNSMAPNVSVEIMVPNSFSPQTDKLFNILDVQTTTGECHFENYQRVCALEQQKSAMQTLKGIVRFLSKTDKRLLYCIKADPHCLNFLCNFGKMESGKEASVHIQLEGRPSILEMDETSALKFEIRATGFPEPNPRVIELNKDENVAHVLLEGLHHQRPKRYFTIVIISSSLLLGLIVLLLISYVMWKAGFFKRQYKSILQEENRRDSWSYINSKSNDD
UniProt P26010, 20-798 limits assumed: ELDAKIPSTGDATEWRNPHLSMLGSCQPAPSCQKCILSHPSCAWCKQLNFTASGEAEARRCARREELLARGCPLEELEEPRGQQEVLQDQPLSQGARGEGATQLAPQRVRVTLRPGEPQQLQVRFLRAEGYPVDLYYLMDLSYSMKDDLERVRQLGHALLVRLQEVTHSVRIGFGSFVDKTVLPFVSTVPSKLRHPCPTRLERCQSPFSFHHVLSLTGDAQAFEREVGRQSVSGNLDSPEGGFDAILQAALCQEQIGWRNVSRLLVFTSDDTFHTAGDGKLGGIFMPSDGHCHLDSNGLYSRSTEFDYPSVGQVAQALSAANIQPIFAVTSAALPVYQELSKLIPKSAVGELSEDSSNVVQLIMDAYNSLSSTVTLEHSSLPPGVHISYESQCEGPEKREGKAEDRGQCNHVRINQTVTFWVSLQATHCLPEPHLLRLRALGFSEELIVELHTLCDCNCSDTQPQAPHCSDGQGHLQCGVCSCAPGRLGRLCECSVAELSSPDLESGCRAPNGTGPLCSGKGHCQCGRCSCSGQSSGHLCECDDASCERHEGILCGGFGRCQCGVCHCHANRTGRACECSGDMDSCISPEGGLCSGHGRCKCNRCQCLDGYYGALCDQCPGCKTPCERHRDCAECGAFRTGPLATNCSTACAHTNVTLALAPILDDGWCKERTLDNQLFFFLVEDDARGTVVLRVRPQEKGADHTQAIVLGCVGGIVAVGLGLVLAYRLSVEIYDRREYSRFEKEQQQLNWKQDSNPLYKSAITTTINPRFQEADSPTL

According to patent publication US20050209232A1, “Pyridazinone ureas as antagonists of alpha4 integrins” (priority 2004, published 2005):

Legend:
α4β1 = α4β1 (Homo sapiens, UniProt P05556+P13612); assay: Ramos Cell Adhesion Assay (α4β1 Mediated Adhesion/VCAM-1); conditions: read-out: α4β1 IC50; Ramos cells adhering to recombinant hVCAM-1
Protocol: Ramos Cell Adhesion Assay (α4β1 Mediated Adhesion/VCAM-1)
Immulon 96 well plates (Dynex) were coated with 100 μL recombinant hVCAM-1 at 4.0 μg/mL in 0.05 M NaCO3 buffer pH 9.0 overnight at 4° C. (R&D Systems). Plates were washed 2 times in PBS with 1% BSA and blocked for 1 h@room temperature in this buffer. PBS was removed and compounds to be tested (50 μL) were added at 2× concentration. Ramos cells, (50 μL at 2×10^6/mL) labeled with 5 μM Calcein AM (Molecular Probes) for 1 h at 37° C., were added to each well and allowed to adhere for 1 h at room temperature. Plates were washed 4 × in PBS+1% BSA and cells were lysed for 15 minutes in 100 μL of 1 M Tris pH 8.0 with 1% SDS. The plate was read at 485 nm excitation and 530 nm emission.

human α4β7 integrin = human α4β7 integrin (Homo sapiens, UniProt P13612+P26010); assay: α4β7-K562 Cell Adhesion Assay (α4β7 Mediated Adhesion/MAdCAM-1); conditions: read-out: α4β7 IC50; K562 cells expressing human α4β7 adhering to FLAG-hMAdCAM-1, 1 mM Mn2+
Protocol: α4β7-K562 Cell Adhesion Assay (α4β7 Mediated Adhesion/MAdCAM-1)
M2 anti-FLAG Antibody Coated 96-well plates (Sigma) were coated for 1 hour at 4° C. with 2-8 μL/well recombinant FLAG-hMAdCAM-1 contained in 100 μL of Dulbecco's PBS, pH 7.4, with 1% BSA and 1 mM Mn^2+ (PBS-BSA-Mn). Plates were washed once with PBS-BSA-Mn. Buffer was removed and compounds to be tested (50 μL) were added at 2× concentration. Stably transfected K562 cells expressing human α4β7 integrin, (50 μL at 2×10^6/mL) that had been labeled with 100 μg/mL carboxymethyl fluorescein diacetate succinimidyl ester (CFDA-SE; Molecular Probes) for 15 min at 37° C. were added to each well and allowed to adhere for 1 h at room temperature. Plates were washed 4× in PBS-BSA-Mn and then cells were lysed for 2 min by addtion of 100 μL of PBS without Ca^2+, Mg^2+ supplemented with 0.1 M NaOH. The plate was read on a 96-well fluorescent plate reader at 485 nm excitation and 530 nm emission.

| SMILES | IC50 (α4β1) | IC50 (human α4β7 integrin) |
| --- | --- | --- |
| COc1cnn(C)c(=O)c1-c1ccc(C[C@H](NC(=O)N(c2ccc(NC(C)C)cc2)C(C)C)C(=O)O)cc1 | > 5000 nM | 238 nM |
| CCN(C(=O)N[C@@H](Cc1ccc(-c2c(OC)cnn(C)c2=O)cc1)C(=O)O)c1cccc2ccccc12 | > 5000 nM | 446 nM |
| COc1cnn(C)c(=O)c1-c1ccc(C[C@H](NC(=O)NN2CCN(CCO)CC2)C(=O)O)cc1 | > 5000 nM | 382 nM |
